The results in this text go back to patent US20260242405A1, “N-DERIVATIZED SIALIC ACIDS AND RELATED SIALOSIDES” (THE REGENTS OF THE UNIVERSITY OF CALIFORNIA, priority 2023, published 2026).

The structures appear in SMILES notation.

Experiment [1] addresses N1-BR18 (IAV neuraminidase) (Influenza A virus, UniProt A0A0X9QTS2). Description: Fluorescence-based inhibition assay (substrate Neu5Acα2-3GalβMU, β-galactosidase coupled). In kind it is biochemical, influenza A virus A/Brisbane/02/2018 (H1N1). To be noted: inhibitor 8.0 μM.
Experiment [2] deals with NB-Aus21 (IBV neuraminidase) (Influenza B virus, UniProt A0A1X9RX69). In kind it is biochemical, influenza B virus B/Austria/1359417/2021. To be noted: inhibitor 8.0 μM.
Experiment [3] concerns the target N2-Dar21 (IAV neuraminidase) (Influenza A virus, UniProt A0A193ACB1). Description: Fluorescence-based inhibition assay (substrate Neu5Acα2-3GalβMU, β-galactosidase coupled). In kind it is biochemical, influenza A virus A/Darwin/9/2021 (H3N2). Particulars: inhibitor 8.0 μM; Example 3, Table 4.
For experiment [4], the target named is N2-Kan17 (IAV neuraminidase) (Influenza A virus, UniProt A0A193ACB1). The description is as above. The experiment is classed as biochemical, influenza A virus A/Kansas/14/2017 (H3N2). To be noted: inhibitor 8.0 μM; Example 3, Table 4.
[5] abbreviates: substrate Neu5Acα2-3GalβMU 8.0 μM, Example 2, Table 2.

For `CC(=O)N[C@H]1[C@H]([C@H](O)[C@H](O)CO)OC(C(=O)O)=C[C@@H]1N=C(N)N` [Zanamivir, 4-guanidino-2,3-dehydro-N-acetylneuraminic acid, reference compound], the “Percentage inhibition against N1-BR18 (IAV)” value in experiment [1] (setting [5]) came out at 98.5 ± 0.1%. In addition, in experiment [1] (Example 3, Table 4), the “percentage inhibition against N1-BR18” value worked out at 99.6%. Also, the “Percentage inhibition against NB-Aus21 (IBV)” value in experiment [2] (setting [5]) is 99.9 ± 0.0%. Moreover, the “percentage inhibition against NB-NB-Aus21” value in experiment [2] (Example 3, Table 4) was determined as 99.1%. Also, the “percentage inhibition against N2-Dar21” value in experiment [3] is given as 99.7%. In experiment [4], the “percentage inhibition against N2-Kan17” value is on record as 95.6%.
